Columns and labels:
[1] = molecular target: CYP3A4 (Homo sapiens (Human), UniProt P08684); conditions: microsomes, pH 7.5
Protocol: To gain insight into the selectivity of the synthetic compounds, nicotine, nicotine related alkaloids and nicotine metabolites for inhibition of other CYPs, we examined the major CYP present in human liver (i.e., CYP 3A4). […] A typical incubation mixture ([…] ), 0.5 mM NADP^+, 2.0 mM G6P, 1 U of G6P dehydrogenase, […] inhibitor was added last as to minimize interaction with the protein. After mixing on ice, the reaction was initiated by the addition of substrate and incubated at 37° C. with shaking in air. Organic extracts were injected onto a Hitachi L-7100 system equipped with a Hitachi L-7400 UV detector. Separations were done with an Altex Ultrasphere ODS (4.6 mm×250 mm, 5 μm) column. The analytes were eluted with an isocratic solvent system consisting of water/acetonitrile/methanol (30:10:60, v/v/v) at a flow rate of 1.0 mL/min. […] Quantification of substrate and metabolite was determined from peak areas of the chromatogram and comparison with standard curves. IC50 values were determined as described below.
To measure CYP3A4 activity, testosterone 6-hydroxylation was determined.

Protein sequences, listed by entry. Tags and fused reporters are not part of them. Lines headed by an entry give the natural chain unless they say otherwise; changes in a name come on top.
UniProt P08684, whole entry: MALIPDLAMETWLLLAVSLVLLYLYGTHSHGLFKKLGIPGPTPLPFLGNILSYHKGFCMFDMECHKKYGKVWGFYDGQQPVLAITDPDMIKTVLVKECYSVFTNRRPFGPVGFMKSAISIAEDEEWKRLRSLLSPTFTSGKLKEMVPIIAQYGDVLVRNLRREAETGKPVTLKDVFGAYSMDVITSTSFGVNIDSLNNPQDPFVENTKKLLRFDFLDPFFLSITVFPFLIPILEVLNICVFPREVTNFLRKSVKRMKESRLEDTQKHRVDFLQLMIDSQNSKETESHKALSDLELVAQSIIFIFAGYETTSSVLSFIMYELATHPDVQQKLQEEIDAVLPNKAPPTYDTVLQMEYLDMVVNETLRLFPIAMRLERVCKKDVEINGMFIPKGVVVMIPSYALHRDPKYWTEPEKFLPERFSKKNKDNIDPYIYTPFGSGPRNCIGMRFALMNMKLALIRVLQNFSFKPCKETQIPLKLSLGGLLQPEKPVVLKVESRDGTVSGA
UniProt P20813: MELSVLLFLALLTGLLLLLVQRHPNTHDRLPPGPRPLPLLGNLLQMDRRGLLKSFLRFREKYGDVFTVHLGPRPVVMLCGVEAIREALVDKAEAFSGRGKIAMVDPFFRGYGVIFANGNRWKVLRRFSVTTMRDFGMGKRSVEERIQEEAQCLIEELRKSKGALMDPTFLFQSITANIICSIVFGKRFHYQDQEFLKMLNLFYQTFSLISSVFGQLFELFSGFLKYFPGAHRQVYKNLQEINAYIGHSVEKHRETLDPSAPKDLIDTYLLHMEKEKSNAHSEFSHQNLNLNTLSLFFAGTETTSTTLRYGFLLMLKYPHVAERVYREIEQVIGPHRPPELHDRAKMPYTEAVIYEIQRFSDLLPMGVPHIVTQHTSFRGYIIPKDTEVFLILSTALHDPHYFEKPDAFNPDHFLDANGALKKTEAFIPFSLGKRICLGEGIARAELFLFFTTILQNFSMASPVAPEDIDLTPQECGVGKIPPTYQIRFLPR
UniProt P11509: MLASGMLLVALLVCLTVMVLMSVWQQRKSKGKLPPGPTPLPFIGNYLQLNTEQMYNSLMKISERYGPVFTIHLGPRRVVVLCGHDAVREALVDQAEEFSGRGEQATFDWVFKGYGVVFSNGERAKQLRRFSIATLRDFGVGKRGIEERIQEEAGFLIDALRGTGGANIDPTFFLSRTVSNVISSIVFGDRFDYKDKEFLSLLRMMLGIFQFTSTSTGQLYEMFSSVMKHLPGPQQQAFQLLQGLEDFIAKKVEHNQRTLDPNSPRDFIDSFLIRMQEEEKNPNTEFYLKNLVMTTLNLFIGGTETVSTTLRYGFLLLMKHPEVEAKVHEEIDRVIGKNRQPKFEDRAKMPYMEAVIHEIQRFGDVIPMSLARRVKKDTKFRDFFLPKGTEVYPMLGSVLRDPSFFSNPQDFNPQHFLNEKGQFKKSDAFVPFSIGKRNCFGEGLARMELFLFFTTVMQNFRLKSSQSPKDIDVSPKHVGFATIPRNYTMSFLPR
UniProt Q16696: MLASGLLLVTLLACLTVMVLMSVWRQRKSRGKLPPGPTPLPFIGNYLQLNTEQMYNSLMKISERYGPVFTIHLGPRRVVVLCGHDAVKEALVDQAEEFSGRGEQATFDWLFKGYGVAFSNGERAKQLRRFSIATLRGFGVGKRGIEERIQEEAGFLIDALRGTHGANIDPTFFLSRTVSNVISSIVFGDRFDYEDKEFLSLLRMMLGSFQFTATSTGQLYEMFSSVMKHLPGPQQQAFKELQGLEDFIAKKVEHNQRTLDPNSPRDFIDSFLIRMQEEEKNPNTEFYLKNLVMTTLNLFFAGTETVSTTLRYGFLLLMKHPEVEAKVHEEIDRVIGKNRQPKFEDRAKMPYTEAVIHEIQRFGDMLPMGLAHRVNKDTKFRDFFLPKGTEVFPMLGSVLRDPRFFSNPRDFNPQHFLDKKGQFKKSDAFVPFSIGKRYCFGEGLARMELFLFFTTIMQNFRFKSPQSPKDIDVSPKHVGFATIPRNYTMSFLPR

[2] = molecular target: CYP2B6 (Homo sapiens (Human), UniProt P20813); assay: CYP2B6 Vivid blue substrate O-dealkylation inhibition; type: biochemical; conditions: insect cell microsomes expressing CYP2B6, 0.2M potassium phosphate buffer; mean of at least 3 determinations ± SD; read-out: IC50 ± SD 2B6
[3] = molecular target: human CYP2A6 (Homo sapiens (Human), UniProt P11509)
[4] = molecular target: CYP2A13 (Homo sapiens (Human), UniProt Q16696); assay: in vitro

For `Cc1cscc1-c1ccc(F)nc1` [Compound 21, 2-Fluoro-5-(4-methylthiophen-3-yl)pyridine], which IC50 [1] is on record?
The IC50 was 39.1 ± 12.8 µM.

`c1cncc(-c2cccnc2)c1` [Compound 31, 3-(Pyridin-3-yl)pyridine] was tested. Which IC50 [2] did it give?
Its IC50 is 145 ± 11 µM.

`CN(C)Cc1ccc(-c2cccnc2)o1` [Compound 43, N,N-Dimethyl(5-(pyridin-3-yl)furan-2-yl)methanamine] was tested. Which Ki [3] did it give?
The Ki was 47.2 ± 3.1 µM.

`OCc1ccc(-c2cccnc2)o1` [Compound 45, (5-(Pyridin-3-yl)furan-2-yl)methanol] was tested. Which Ki [3] did it give?
Its Ki is 35.2 ± 16.7 µM.

With `Cc1cscc1-c1cccnc1` [TD-I-103] as the compound, how does the inhibition at 1 µM [4] read?
The inhibition at 1 µM was 0%.

How did the inhibition at 1 µM [4] turn out when `c1cncc(-c2c[nH]cn2)c1` [TD-I-125] was run?
The inhibition at 1 µM was 7%.

For `Cc1ccsc1-c1ccc(F)nc1` [TD-II-077], which inhibition at 1 µM [4] is on record?
The inhibition at 1 µM was 30%.

Source: patent US8609708B2 (Human BioMolecular Research Institute, priority 2003, dated 2013)
